Data from BindingDB's records for US9175000.

Legend:
Details in all cases: pH 7.4
[1] = target: T1, Kappa-type opioid receptor (Homo sapiens, UniProt P41145); test: Radioligand Dose-Displacement Binding Assays (kappa)
Mu-type opioid receptor [2] = target: T2, Mu-type opioid receptor (Homo sapiens, UniProt P35372); test: Radioligand Dose-Displacement Binding Assays (mu)
Mu-type opioid receptor [3] = target: T2, Mu-type opioid receptor; test: GTPgammaS Functional Assay (mu)
[4] = target: T1, Kappa-type opioid receptor; test: GTPgammaS Functional Assay

| Structure (SMILES) | Ki [1] [nM] | Ki (Mu-type opioid receptor [2]) [nM] | EC50 (Mu-type opioid receptor [3]) [nM] | EC50 [4] [nM] |
| --- | --- | --- | --- | --- |
| COc1ccc2c3c1O[C@H]1[C@@]4(OC)CC[C@@]5(C[C@@H]4C(NCC(=O)O)c4ccccc4)[C@@H](C2)N(CC2CC2)CC[C@]315 (some centres not stated) | 52.2 |  |  |  |
| COc1ccc2c3c1O[C@H]1[C@@]4(OC)CC[C@@]5(C[C@@H]4C(N[C@@H](C(N)=O)c4ccccc4)c4ccccc4)[C@@H](C2)N(CC2CC2)CC[C@]315 (some centres not stated) |  | 123 |  |  |
| COc1ccc2c3c1O[C@H]1[C@@]4(OC)CC[C@@]5(C[C@@H]4C(NC(C(=O)O)c4ccccc4)c4ccccc4)[C@@H](C2)N(CC2CC2)CC[C@]315 (some centres not stated) |  | 278 |  |  |
| COc1ccc2c3c1O[C@H]1[C@@]4(OC)CC[C@@]5(C[C@@H]4[C@](O)(CC(O)CO)c4ccccc4)[C@@H](C2)N(CC2CC2)CC[C@]315 (some centres not stated) | 12.9 | 49.9 | 196 |  |
| COc1ccc2c3c1O[C@H]1[C@@]4(OC)CC[C@@]5(C[C@@H]4C(NC(C)C(N)=O)c4ccccc4)[C@@H](C2)N(CC2CC2)CC[C@]315 (some centres not stated) |  |  |  | 68.3 |
